DSG3 Ab inh – blocks pemphigus antibody binding to human desmoglein-3. binding (percent of control), % at 10 µM. DSG3-coupled beads, scFv-anti-DSG3-GFP binding, flow cytometry; active compounds read low. actives 0.48% (n = 310,000). P32926;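 active = binding more than 3 SD below its plate's average and above zero; inconclusive = below that plate limit but binding exactly zero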;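 also: hits lower antibody fragment binding to DSG3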
eIF4H inh – inhibitors of RNA binding by human eIF4H; Q15056; eIF4H fluorescence polarization binding assay; inhibition, % at 35 µM; actives 0.94% (n = 290,000); AID 2012;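 also: calls also rest on retests at 20 µM and on dose response follow-up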
Yeast UUG start – alters start codon recognition fidelity in yeast | S. cerevisiae UUG-firefly luciferase reporter, luminescence/redox ratio | activity score, % at 18.7 µM | hit rate 0.13% among 350,000 | AID 602363;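 active means replicate mean at a twofold rise or more, about +100% in these data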;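 further: firefly luciferase made from a UUG start codon reports start codon fidelity; reporter light over untreated wells divided by growth signal over untreated wells; some hits fall short of that in this replicate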
PABP polyA inh – blocks human PABP binding to poly(A) RNA. calls only at 35 µM. actives 1% (n = 290,000). P11940. fluorescence polarization;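 also: calls also rest on retests at 20 µM and on dose response follow-up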
PABP1 MLLE inh – blocks PAM2 peptide binding to the PABP1 MLLE domain; GST-MLLE / FITC-PAM2 fluorescence polarization; actives 0.36% (n = 360,000); P11940; inhibition, % at 20 µM; in the data active = inhibition above about 35%, passing the limit was not always enough;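 also: plate controls were DMSO wells with GST-MLLE for no effect and wells lacking GST-MLLE protein for full effect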
* hit, by the source's call; i = inactive; ? = inconclusive; · = no result; + = active, no number. Only some compounds are listed: those with a hit (about 1.5% of all), similar ones and a draw of the others. Unless noted, no rule for the calls is given here.

| nr | canonical_smiles | eIF4H inh | Yeast UUG start | PABP polyA inh |
| --- | --- | --- | --- | --- |
| 1 | CCOC(=O)c1sc(=S)n(C)c1NC(=O)c1ccc(OC)cc1 | -9 | -16 | i |
| 2 | CCOC(=O)c1sc(=S)n(C)c1NC(=O)c1ccccc1Cl | 1 | -23 | i |
| 3 | O=C(Nc1ccccc1)Nc1ccc2c(c1)[C@@H]1C[C@H](CC(=O)N3CCOCC3)O[C@@H](CO)[C@@H]1O2 | · | -8 | · |
| 4 | CCCCNC(=S)N(C)/N=C/c1c(C)[nH]c2ccccc12 | 50* | · | i |
| 5 | CSc1ccc(C(c2c(C(=O)O)[nH]c3ccccc23)c2c(C(=O)O)[nH]c3ccccc23)cc1 | 53* | 23 | i |
| 6 | CCOc1cc(Br)cc(C(c2c(C(=O)O)[nH]c3ccccc23)c2c(C(=O)O)[nH]c3ccccc23)c1O | 32 | -11 | i |
| 7 | C[C@@H]1CN([C@@H](C)CO)C(=O)c2cc(/C=C/c3ccccc3)cnc2O[C@@H]1CN(C)C(=O)NC1CCCCC1 | · | 17 | · |
| 8 | Cc1cc(-c2ccc(Cl)cc2)n2nc(N)nc2n1 | -7 | -17 | i |

| nr | DSG3 Ab inh | PABP1 MLLE inh |
| --- | --- | --- |
| 1 | 92 | 31 |
| 2 | 117 | 43* |
| 3 | · | · |
| 4 | 175 | -165 |
| 5 | 107 | -5 |
| 6 | 95 | 6 |
| 7 | · | · |
| 8 | 75* | 3 |

| nr | canonical_smiles | eIF4H inh | Yeast UUG start | PABP polyA inh |
| --- | --- | --- | --- | --- |
| 9 | CCOC(=O)c1c(/N=C/C2=C(O)CCCC2=O)sc2c1CCCC2 | 7 | 19 | i |
| 10 | CCOC(=O)c1cc(CC)sc1/N=C/C1=C(O)CCCC1=O | 72 | 3 | + |
| 11 | C[C@H]1CN([C@@H](C)CO)C(=O)c2cc(NS(=O)(=O)c3cn(C)cn3)ccc2O[C@H]1CN(C)Cc1ccccc1 | · | -4 | · |
| 12 | CCCCC(=O)c1ccc(O)cc1 | -9 | -13 | i |
| 13 | O=C(CCO)c1ccc(O)cc1 | 94* | -19 | + |
| 14 | O=C(N/N=C/c1ccc(O)c(O)c1O)/C(=C/c1ccc([N+](=O)[O-])cc1)NC(=O)c1ccccc1 | 105* | -25 | + |
| 15 | COc1ccc(NC(=O)Nc2ccc3c(c2)C(=O)N([C@H](C)CO)C[C@@H](C)[C@H](CN(C)C(=O)Nc2ccc4c(c2)OCO4)O3)cc1 | · | 4 | · |
| 16 | Cc1cccc(NC(=O)Cn2c(=O)n(CC3CCCO3)c(=O)c3ccccc32)c1 (configuration not stated) | -1 | 3 | i |

| nr | DSG3 Ab inh | PABP1 MLLE inh |
| --- | --- | --- |
| 9 | 100 | 24 |
| 10 | 98 | 14 |
| 11 | · | · |
| 12 | 102 | -3 |
| 13 | 100 | -13 |
| 14 | 91 | 37 |
| 15 | · | · |
| 16 | · | 2 |

| nr | canonical_smiles | eIF4H inh | Yeast UUG start | PABP polyA inh |
| --- | --- | --- | --- | --- |
| 17 | CCOc1ccc(NC(=O)Cn2c(=O)n(CC3CCCO3)c(=O)c3ccccc32)cc1 (configuration not stated) | active | -4 | i |
| 18 | O=c1[nH]ncc(N/N=C\c2cccs2)c1Cl | active | · | + |
| 19 | O=C(Nc1cc(F)ccc1F)N[C@@H]1CC[C@@H](CCNC(=O)c2cnccn2)O[C@@H]1CO | · | -5 | · |
| 20 | CCOC(=O)c1cc(-c2ccccc2)sc1NC(=O)C(C)N1C(=O)NC(C)(c2ccc(Cl)cc2)C1=O (configuration not stated) | active | -8 | + |
| 21 | CCCN(C)C[C@@H]1Oc2ncc(-c3cccc(F)c3)cc2C(=O)N([C@H](C)CO)C[C@@H]1C | · | 31 | · |
| 22 | CCOc1ccccc1NC(=O)CSc1nnc(-c2cccnc2)o1 | · | -23 | · |
| 23 | CCOc1ccccc1NC(=O)CSc1nnc(-c2ccncc2)o1 | · | -11 | · |
| 24 | O=C(Nc1cccc(F)c1)Nc1ccnn1C1CCN(C(=O)CCN2CCCO2)CC1 | 2 | 5 | i |

| nr | DSG3 Ab inh | PABP1 MLLE inh |
| --- | --- | --- |
| 17 | 98 | -3 |
| 18 | 103 | -4 |
| 19 | · | · |
| 20 | 88 | -46 |
| 21 | · | · |
| 22 | 95 | 50* |
| 23 | 101 | 21 |
| 24 | 0.6* | 2 |

| nr | canonical_smiles | eIF4H inh | Yeast UUG start | PABP polyA inh |
| --- | --- | --- | --- | --- |
| 25 | O=C(Nc1ccccc1Cl)Nc1ccnn1C1CCN(C(=O)CCN2CCCO2)CC1 | -14 | -8 | i |
| 26 | N#Cc1c(NCCCO)nc(NCc2ccccc2)c2c1CCN(Cc1ccccc1)C2 | ? | · | ? |
| 27 | CN1CCc2c(C#N)c(N3CCCCC3)nc(NCc3ccccc3)c2C1 | 74* | -12 | + |
| 28 | CSc1c(C#N)c(N)nc2sc(C(=O)c3ccccc3)c(N)c12 | 85* | -9 | + |
| 29 | CCOc1ccccc1OCCC(=O)OCC(=O)c1ccc[nH]1 | 59* | · | + |
| 30 | COc1ccc(N=C2SC(CC(=O)Nc3ccccc3)C(=O)N2CCN2CCOCC2)cc1 (configuration not stated) | active | -7 | + |
| 31 | COc1cccc(CN(C)CC(=O)Nc2ccccc2C(=O)NC2CC2)c1 | · | -13 | · |
| 32 | COc1cccc(CN(C)CC(=O)NC(=O)NCc2ccco2)c1 | 50* | 0 | + |

| nr | DSG3 Ab inh | PABP1 MLLE inh |
| --- | --- | --- |
| 25 | 107 | -1 |
| 26 | 120 | 32 |
| 27 | 108 | 47 |
| 28 | 108 | 11 |
| 29 | 98 | 1 |
| 30 | 101 | -4 |
| 31 | 95 | 89* |
| 32 | · | 3 |

Entries listed above that bear a hit mark in DSG3 Ab inh:
| nr | canonical_smiles | eIF4H inh | Yeast UUG start | PABP polyA inh |
| --- | --- | --- | --- | --- |
| 8 | Cc1cc(-c2ccc(Cl)cc2)n2nc(N)nc2n1 | -7 | -17 | i |
| 24 | O=C(Nc1cccc(F)c1)Nc1ccnn1C1CCN(C(=O)CCN2CCCO2)CC1 | 2 | 5 | i |

| nr | DSG3 Ab inh | PABP1 MLLE inh |
| --- | --- | --- |
| 8 | 75* | 3 |
| 24 | 0.6* | 2 |

Additional compounds.
| nr | canonical_smiles | eIF4H inh | Yeast UUG start | PABP polyA inh |
| --- | --- | --- | --- | --- |
| 33 | COc1ccc(C(CC(=O)NCc2ccco2)c2ccc(F)cc2)cc1 (configuration not stated) | 2 | 0 | i |
| 34 | O=C(COc1cc(Cl)ccc1Cl)Nc1ccc2c(c1)CCC2 | 64* | · | + |
| 35 | O=C(COc1cc(Cl)ccc1Cl)Nc1ccc2[nH]c(=O)[nH]c2c1 | · | -13 | · |
| 36 | Cc1ccc(S(=O)(=O)Nc2ccc3c(c2)CC(=O)N([C@@H](C)CO)C[C@H](C)[C@@H](CN(C)S(=O)(=O)c2ccc(Cl)cc2)O3)cc1 | · | -1 | · |
| 37 | O=C(C[C@H]1CC[C@@H]2[C@H](COC[C@@H](O)CN2Cc2cccc(Cl)c2)O1)N1CCOCC1 | · | -9 | · |
| 38 | CN(C)CCN1C(=O)c2cccc3cc([N+](=O)[O-])cc(c23)C1=O | · | · | · |
| 39 | CN1CC=C2C(C#N)=C(N)C(C#N)(C#N)C(c3cccc(Cl)c3Cl)C2C1 (configuration not stated) | 122* | · | i |
| 40 | CN1CC=C2C(C#N)=C(N)C(C#N)(C#N)[C@H](c3ccoc3)[C@H]2C1 | ? | · | ? |

| nr | DSG3 Ab inh | PABP1 MLLE inh |
| --- | --- | --- |
| 33 | 31* | -8 |
| 34 | 91 | -12 |
| 35 | 98 | -10 |
| 36 | · | · |
| 37 | · | · |
| 38 | 115 | 81* |
| 39 | 113 | 55 |
| 40 | 101 | 139 |

Part of the list above, showing only eIF4H inh, Yeast UUG start and PABP1 MLLE inh.
nr	canonical_smiles	eIF4H inh	Yeast UUG start	PABP1 MLLE inh
34	O=C(COc1cc(Cl)ccc1Cl)Nc1ccc2c(c1)CCC2	64*	·	-12
37	O=C(C[C@H]1CC[C@@H]2[C@H](COC[C@@H](O)CN2Cc2cccc(Cl)c2)O1)N1CCOCC1	·	-9	·

(continued)
| nr | canonical_smiles | eIF4H inh | Yeast UUG start | PABP polyA inh |
| --- | --- | --- | --- | --- |
| 41 | CO[C@@H]1CN(C)C(=O)c2cc(NC(=O)c3cccc(F)c3)ccc2OC[C@@H](C)NC[C@H]1C | · | -7 | · |
| 42 | c1ccc(C2=NNC(c3ccccn3)=NN2)nc1 | 7 | · | i |
| 43 | Cc1cc(C(=O)COC(=O)c2ccco2)c(C)n1Cc1ccco1 | 26 | · | i |
| 44 | Cc1cccc(-n2nnnc2SCC(=O)c2cc(C)n(Cc3ccco3)c2C)c1 | 58* | -8 | i |
| 45 | Cc1cc(C(=O)COC(=O)c2ccncc2)c(C)n1Cc1ccco1 | 55* | -55 | + |
| 46 | Cc1sc2nc(SCC(=O)c3cc(C)n(CC4CCCO4)c3C)n(C(C)C)c(=O)c2c1C (configuration not stated) | 65* | -8 | + |
| 47 | Cc1cc(C(=O)CSc2nc3ccccc3o2)c(C)n1CC1CCCO1 (configuration not stated) | 52* | · | + |
| 48 | COc1cc2c(cc1O)C=[N+](Cc1cc3c(cc1Br)OCO3)CC2 | · | 3 | · |
| 49 | Cc1cccc(-n2nnnc2SCC(=O)c2cc(C)n(CC3CCCO3)c2C)c1 (configuration not stated) | 53* | -12 | + |
| 50 | O=C(CSc1nc2ccccc2o1)c1cc2ccccc2oc1=O | 22 | -18 | i |
| 51 | COc1ccc(S(=O)(=O)N[C@H]2CC[C@H](CCNC(=O)c3ccccc3F)O[C@H]2CO)cc1 | · | 38 | · |

| nr | DSG3 Ab inh | PABP1 MLLE inh |
| --- | --- | --- |
| 41 | · | · |
| 42 | 93 | 43* |
| 43 | 100 | 6 |
| 44 | 98 | -93 |
| 45 | 108 | -29 |
| 46 | 98 | -25 |
| 47 | 96 | -7 |
| 48 | · | · |
| 49 | · | -98 |
| 50 | 102 | 38* |
| 51 | · | · |

High-throughput results: PubChem BioAssay, several laboratories
